Test results reported in patent US20260384421A1, “NOVEL COMPOUNDS THAT CAN BE USED AS THERAPEUTIC AGENTS” (published 2026).

How the values were obtained:
[1] = tested on: 23132/87 cells; test: alamarBlue proliferation assay with 23132/87 cells; details: read-out: Activity on 23132/87: IC50, RPMI 1640 medium, 10% FBS
Description: These hyperproliferative processes can be benign or malignant and include hyperplasia, neoplasia, cancer and pre-cancerous lesions, and metastases. The antiproliferative activities of compounds falling under general formula (I) were investigated on human primary epidermal keratinocytes (HPEK) and human, murine and canine cell lines derived from hyperproliferative tissue or different cancer types, including MDA-MB-231, ZR-75-30, HCC-1395, HCC-1937, and T-47D all originating from cancer of the breast, JURKAT, RPMI-8402, LOUCY, TANQUE, REC-1, HL-60, NB-4 all originating from different types of blood cancer including lymphoma and leukemia of T-cells, B-cells and myeloid cells, TT originating from cancer of the neuroendocrine system, HeLa originating from cancer of the cervix, 23132/87, SW-948, and HCT-116 all originating from cancer of the gastrointestinal tract including stomach and colon, BHY originating from cancer of the mucosal epithelium, A-431 originating from cancer of the skin, HEP-G2 originating from cancer of the liver, NCI-H460 and A-549 both originating from cancer of the lung, PANC-1 originating from cancer of the pancreas, U-87 MG originating from cancer of the brain, A-375 and RVH-421 both originating from cancer of melanocytes, SW-1353 originating from cancer of bone-derived chondrocytes, C2C12 a mouse cell line originating from hyperproliferative muscle progenitor cells, LL/2 a mouse cell line originating from cancer of the lung, CF21.T a dog cell line originating from cancer of the connective tissue. To this end, according cells were seeded into 96-well plates (CORNING #3598) suitable for fluorescence assays at following initial cell numbers: 1000 cells per well for HPEK; 3000 cells per well for MDA-MB-231, 8000 cells per well for ZR-75-30, 1500 cells per well for HCC-1395, 1500 cells per well for HCC-1937, 3000 cells per well for T-47D, 1500 cells per well for JURKAT, 5000 cells per well for RPMI-8402, 9000 cells per well for LOUCY, 1500 cells per well for TANQUE, 9000 cells per well for REC-1, 1000 cells per well for HL-60, 1000 cells per well for NB-4, 9000 cells per well for TT, 2000 cells per well for HeLa, 2000 cells per well for 23132/87, 9000 cells per well for SW-948, 700 cells per well for HCT-116, 1500 cells per well for BHY, 700 cells per well for A-431, 1500 cells per well for HEP-G2, 500 cells per well for NCI-H460, 1000 cells per well for A-549, 1500 cells per well for PANC-1, 2500 cells per well for U-87 MG, 700 cells per well for A-375, 1500 cells per well for RVH-421, 2000 cells per well for SW-1353, 500 cells per well for C2C12, 500 cells per well for LL/2, and 3000 cells per well for CF21.T. In a volume of 90 μL per well of culture medium the cells were treated with compounds at indicated final concentrations by adding 10 μL per well of 10× compound working solutions from 1:100 pre-diluted 1000× compound DMSO stock-solutions in H2O (Water For Injection, WFI, Fisher Scientific, Gibco™ #A12873) or with the empty carrier DMSO (AppliChem, #A3672) at 0.1% v/v as control yielding a final volume of 100 μL per well. At day 5 after starting the treatments the cells were subjected to the alamarBlue® Proliferation Assay (Bio-Rad Serotec GmbH, BUF012B) according to the protocol of the manufacturer. The readout was taken with a multi-well plate-reader (Tecan Spark®) in the fluorescence mode with applying a filter for excitation at 560 nm (band width 10 nm) and for emission at 590 nm (band width 10 nm). Treatment for maximum proliferation inhibition with the commercial cytotoxic compound (S)-(+)-camptothecin (Fluorochem #M01564) at a concentration of 10 μM was included on each plate for assay quality control. Some of the test compounds of the present invention may have been obtained and applied as their salt forms.
The assays were performed in duplicate or more replicates of independent single experiments each containing a three- to six-fold replicate for every condition. […]

[2] = tested on: HCT-116 cells; test: combination treatment activity assay with syrosingopine on HCT-116 cells; details: compound 10 nM + syrosingopine 10 μM, 2 days
Description: The synergistic or additive activity of a compound falling under general formula (I) was investigated in a combination treatment with the MCT1/MCT4 inhibitor syrosingopine (TargetMol, #TN2252) in a viability assay on MDA-MB-231 cells cultured in D-Glucose-containing RPMI 1640 medium (Fisher Scientific, Gibco™ #72400) supplemented with 10% fetal bovine serum (Fisher Scientific, Gibco™ #A31608) and on HCT-116 cells cultured as described above. The viability assay was performed according to the protocol as described above using alamarBlue® (Bio-Rad Serotec GmbH, BUF012B). To this end, according cells were seeded into 96-well plates (CORNING, #3598) suitable for fluorescence assays at a cell number of 7'000 cells per well for MDA-MB-231 and 7'000 cells per well for HCT-116, and incubated over night at 37 °C and 5% CO2. Then, in a volume of 90 μL medium per well the cells were treated with compounds at a final concentration of 10 nM for the compound of formula (I) and 10 μM for syrosingopine by adding 10 μL per well of a 10× compound working solution or the empty carrier DMSO as control. […] Relative viability values were calculated from the fluorescence intensities as described above. […]

[3] = tested on: MDA-MB-231 cells; test: combination treatment activity assay with syrosingopine on MDA-MB-231 cells; details: compound 10 nM + syrosingopine 10 μM; 2 days; D-glucose-containing RPMI 1640
Description: The synergistic or additive activity of a compound falling under general formula (I) was investigated in a combination treatment with the MCT1/MCT4 inhibitor syrosingopine (TargetMol, #TN2252) in a viability assay on MDA-MB-231 cells cultured in D-Glucose-containing RPMI 1640 medium (Fisher Scientific, Gibco™ #72400) supplemented with 10% fetal bovine serum (Fisher Scientific, Gibco™ #A31608) and on HCT-116 cells cultured as described above. The viability assay was performed according to the protocol as described above using alamarBlue® (Bio-Rad Serotec GmbH, BUF012B). To this end, according cells were seeded into 96-well plates (CORNING, #3598) suitable for fluorescence assays at a cell number of 7'000 cells per well for MDA-MB-231 and 7'000 cells per well for HCT-116, and incubated over night at 37 °C and 5% CO2. Then, in a volume of 90 μL medium per well the cells were treated with compounds at a final concentration of 10 nM for the compound of formula (I) and 10 μM for syrosingopine by adding 10 μL per well of a 10× compound working solution or the empty carrier DMSO as control. The 10× working solutions were prepared by diluting both compounds from their 2000×DMSO stock-solutions together 1:200 each in H2O (Water For Injection, WFI, Fisher Scientific, Gibco™ #A12873) for the combination treatment, or by diluting their 2000×DMSO stock-solutions individually with the empty carrier DMSO 1:200 in H2O for the corresponding single treatments. Addition of the compound working solutions into the wells yielded a final assay volume of 100 μL per well containing 0.1% v/v DMSO. After 2 days incubation at 37 °C and 5% CO2, the cells were subjected to the alamarBlue® Proliferation Assay as described above. Relative viability values were calculated from the fluorescence intensities as described above.
A decrease in relative viability upon single treatment was not observed for the tested compounds of formula (I) and less than 25% for syrosingopine. […]

| SMILES | IC50 [1] [µM] | Activity as treatment enhancer (additional viability decrease as compared to single treatment with syrosingopine) [2] | Activity as treatment enhancer (additional viability decrease as compared to single treatment with syrosingopine) [3] |
| --- | --- | --- | --- |
| COC1CCC(c2ccc(Oc3ccc(C(=O)N4CCN(Cc5ccc(Cl)cn5)CC4)cc3)c(CO)c2)CC1 (stereo not drawn) | ≤ 5 |  |  |
| O=C(c1ccc(Oc2ccc(C3CCC4(CC3)OCCO4)cc2CO)cc1)N1CCN(Cc2ccc(Cl)cc2)CC1 |  | viability decrease >25% | viability decrease >45% |
